What was measured:
[1] = tested on: Vesicular Stomatitis Virus (VSV) on WISH cells; type: cell-based; details: against VSV on WISH; units with reference to WHO international standards 94/786 and 95/650
[2] = tested on: human prostate cancer PC-3 xenografts; experiment: Human prostate cancer xenograft model; type: in vivo, athymic nude Balb/c mice; details: PC-3 xenograft; for Inhibition rate / Tumor weight (mean ± SD): 30 days; for Tumor weight (mean ± SD): n = 10
Protocol: Colon cancer cell line (LS 180), melanoma cell line (A-375) and liver cancer cell line (Hep G2) were obtained from the American Type Culture Collection (ATCC, Rockville, Md.). Prostate cancer cell line (PC-3) was obtained from German National Resource Centre for Biological Material (DSMZ, Deutsche […] von Mikroorganismen and Zellkulturen, Germany). Lymphocytic cell line (HL 60(s) was purchased from Japanese Collection of Research Bioresources Cell Bank (JCRB, Japan). All cells were cultured according to their instructions (see Table 1). Briefly, LS 180 and Hep G2 were cultured in MEM medium. A-375 was cultured in DMEM. Both media were supplemented with 10% fetal bovine serum (FBS), 2 mM […] U/ml of penicillin, […] of streptomycin, 0.1 mM non-essential amino acids, and 1.0 mM sodium pyruvate. PC-3 and HL 60 (S) cells were cultured in RPMI 1640, supplemented with 10% FBS, 100 U/ml of penicillin, and […] of streptomycin. All cells were maintained in 5% CO2 atmosphere at 37° C. Human cancer xenograft models were established using the methods described by Beverly et al (118). […] For the treatment of 5-FU, 30 mg/kg of 5-FU was i.v. administrated once every two days for a total of 5 times. The groups and treatment doses are summarized below: Once treatment commenced, tumors were measured with a caliper once a week. […] Mice were sacrificed at the day of treatment discontinuation (day 30 after commencement of the treatment). Solid tumors were isolated, photographed, and measured. […] C is the average tumor weight in control group after treatment.

[3] = tested on: human liver cancer Hep G2 xenografts; experiment: Human liver cancer xenograft model; type: in vivo, athymic nude Balb/c mice; details: 30 days; for Tumor weight (mean ± SD): n = 10
[4] = tested on: human melanoma A-375 xenografts; experiment: Human melanoma xenograft model; type: in vivo, athymic nude Balb/c mice; details: A-375 xenograft; for Tumor weight (X ± SD): 30 days (28 days in the source), n = 10
[5] = tested on: human colon cancer LS 180 xenografts; experiment: Human colon cancer xenograft model; type: in vivo, athymic nude Balb/c mice; details: LS 180 xenograft, 28 days; for Tumor weight (X ± SD): n = 10
[6] = tested on: human leukemia HL 60(s) xenografts; experiment: Human leukemia xenograft model; type: in vivo, athymic nude Balb/c mice; details: HL 60(s) xenograft, 21 days; for Tumor weight (X ± SD): n = 10
[7] = General condition of the mice during treatment; type: in vivo; details: mice with human cancer xenografts, during the treatment period

HuIFN-α2b: recombinant human interferon alpha 2b (GeneBank NM_000605) expressed and purified in E. coli; the most-widely used human interferon product [reference compound]
anti-viral activity [1]: 2.0×10^8 IU/mg
Inhibition rate ([2]; 1.25 μg/kg daily s.c.): 34.1%
Tumor weight (mean ± SD) ([2]; 1.25 μg/kg daily s.c.): 1.284 ± 0.862 g
Inhibition rate ([2]; 12.5 μg/kg daily s.c.): 59.4%
Tumor weight (mean ± SD) ([2]; 12.5 μg/kg daily s.c.): 0.790 ± 0.391 g
Inhibition rate ([2]; 125 μg/kg daily s.c.): 75.6%
Tumor weight (mean ± SD) ([2]; 125 μg/kg daily s.c.): 0.476 ± 0.271 g
average volume of tumor mass ([2]; 125 μg/kg daily s.c., day 28): 620.7±296.6 mm^3
average volume of tumor mass ([2]; 125 μg/kg daily s.c., day 30): 691.9±428.3 mm^3
Inhibition rate ([3]; 1.25 μg/kg daily s.c.): 50.9%
Tumor weight (mean ± SD) ([3]; 1.25 μg/kg daily s.c.): 1.070 ± 0.587 g
Inhibition rate ([3]; 12.5 μg/kg daily s.c.): 75.6%
Tumor weight (mean ± SD) ([3]; 12.5 μg/kg daily s.c.): 0.531 ± 0.287 g
Inhibition rate ([3]; 125 μg/kg daily s.c.): 89.2%
Tumor weight (mean ± SD) ([3]; 125 μg/kg daily s.c.): 0.235 ± 0.199 g
Inhibition rate ([4]; 1.25 μg/kg daily s.c.): 38.2%
Tumor weight (X ± SD) ([4]; 1.25 μg/kg daily s.c.): 1.890 ± 0.148 g
Inhibition rate ([4]; 12.5 μg/kg daily s.c.): 45.0%
Tumor weight (X ± SD) ([4]; 12.5 μg/kg daily s.c.): 1.681 ± 0.132 g
Inhibition rate ([4]; 125 μg/kg daily s.c.): 69.9%
Tumor weight (X ± SD) ([4]; 125 μg/kg daily s.c.): 0.920 ± 0.139 g
Inhibition rate ([5]; 1.25 μg/kg daily s.c.): 70.6%
Tumor weight (X ± SD) ([5]; 1.25 μg/kg daily s.c.): 1.225 ± 0.565 g
Inhibition rate ([5]; 12.5 μg/kg daily s.c.): 74.2%
Tumor weight (X ± SD) ([5]; 12.5 μg/kg daily s.c.): 1.076 ± 0.442 g
Inhibition rate ([5]; 125 μg/kg daily s.c.): 82.3%
Tumor weight (X ± SD) ([5]; 125 μg/kg daily s.c.): 0.740 ± 0.310 g
Inhibition rate ([6]; 1.25 μg/kg daily s.c.): 35.5%
Tumor weight (X ± SD) ([6]; 1.25 μg/kg daily s.c.): 2.401 ± 0.698 g
Inhibition rate ([6]; 12.5 μg/kg daily s.c.): 49.8%
Tumor weight (X ± SD) ([6]; 12.5 μg/kg daily s.c.): 1.870 ± 0.660 g
Inhibition rate ([6]; 125 μg/kg daily s.c.): 69.8%
Tumor weight (X ± SD) ([6]; 125 μg/kg daily s.c.): 1.124 ± 0.397 g
general condition of treated mice (eating, behavior, weight loss) [7]: generally ate and behaved normally, and had no weight loss

From patent publication US9982028B2, “Recombinant human interferon-like proteins” (Novagen Holding Corporation, priority 2007, dated 2018)
